Patent US12161664B2, “Tetrathionate for cyanide and methylmercaptan poisoning” (dated 2024)

Assays:
[1] = system: methylmercaptan (methanethiol) poisoning; assay: Mouse methylmercaptan gas exposure model, intramuscular antidote; conditions: mice, intramuscular injection after 15 min, methylmercaptan gas total 40 min; all six saline-injected died
cyanide poisoning = assay: Pig model of cyanide poisoning, intramuscular antidote; conditions: pigs, 18 mg/kg intramuscular; model 100% lethal
[2] = Tetrathionate stability in stored plasma; conditions: plasma stored at 4° C. for 48 h; other conditions (4° C. 24 h, −80° C. 24 or 48 h) not significantly different

O=S(=O)(O)SSS(=O)(=O)O
survival [1]: five of six | survival (cyanide poisoning): three of four | tetrathionate in stored plasma versus zero time samples [2]: significantly different from the zero time samples
